# Reference: patent US6747057B2 (priority 2001, dated 2004)
# pIC50: −log10 of the molar value. This is a selection: effects in other tests are not listed, and their absence says nothing.
# System: GSK-3
# Assay: Inhibition of GSK-3 (32P incorporation into GS 1 peptide)
# Format: biochemical
# Settings: read-out: IC50 GSK-3 inhibition; 37° C., 20 minutes, GS 1 peptide 15 μM, ATP 15 μM
compound,measurement,value
O=C(c1ccccc1)C(Cl)Br (stereo not shown),pIC50,5.30
